We go through two molecules from publication PMC4431592 (Journal of medicinal chemistry, 2015).

In data set [1] the test system is Huh-7.5 cells. Briefly: Cellular viability, alamarBlue-based assay. The following applies: HCVpp entry assay, 4 hour treatment.
Data set [2] concerns HCV. To be noted: read-out: EC50 for the antiviral effect; cited from earlier work.

As for `COc1cc(-c2cnc3c(N4CCOCC4)snc3c2)ccc1N` [Compound 12i, 2-Methoxy-4-(3-morpholinoisothiazolo[4,3-b]pyridin-6-yl)aniline], the “effect on cellular viability (in words)” value in data set [1] is “minimal effect on cellular viability”.

As usually defined, the EC50 is the concentration needed to bring the measured effect to its halfway point. Consider `C#Cc1cccc(Nc2ncnc3cc(OCCOC)c(OCCOC)cc23)c1` [erlotinib], for which the EC50 in data set [2] is 500 to 1500 nM.
